{"source": "published antibiotic growth screens (doi:10.1038/s41589-023-01349-8)", "note": "The other results are listed elsewhere or left out."}
{"tested_on": "A. baumannii ATCC 17978", "experiment": "relative growth (fraction of control); higher = less inhibition", "conditions": "50 µM"}
{"smiles": "CC(CN(C)C)CN1c2ccccc2CCc2ccccc21.O=C(O)/C=C\\C(=O)O", "note": "(stereo not given)", "relative growth": 0.966}
{"smiles": "CC1COc2c(N3CCN(C)CC3)c(F)cc3c(=O)c(C(=O)O)cn1c23", "note": "(stereo not given)", "relative growth": 0.154}
{"smiles": "N[C@@H](CSSC[C@H](N)C(=O)O)C(=O)O", "relative growth": 0.94}
{"smiles": "Cl.NCc1ccc(S(N)(=O)=O)cc1", "relative growth": 0.99}
{"smiles": "Cc1cccc(/C=C2\\CS/C(=C\\c3cccc(C)c3)C2=O)c1", "relative growth": 1.08}
{"smiles": "O=C(CN1CCOCC1)N[C@@H]1CC[C@H](CCNC(=O)C2CCCCC2)O[C@@H]1CO", "relative growth": 1.04}
{"smiles": "CC(=O)SCC(Cc1ccccc1)C(=O)NCC(=O)OCc1ccccc1", "note": "(stereo not given)", "relative growth": 0.886}
{"smiles": "O=c1n(-c2ccc(F)cc2)nc2n1CCCN2", "relative growth": 1}
{"smiles": "COc1cc(C[C@H]2CO[C@H](c3ccc(O)c(OC)c3)[C@@H]2CO[C@H]2O[C@@H](CO)[C@@H](O)[C@@H](O)[C@@H]2O)ccc1O", "relative growth": 0.992}
{"smiles": "CC(=O)O[C@H]1CC[C@@]2(C)C(=CCC3C2CC[C@@]2(C)C3CC[C@@H]2C(C)CCCC(C)C)C1", "note": "(stereo not given in full)", "relative growth": 0.963}
{"smiles": "C[N+](C)(C)[C@@H]1[C@H]2OC[C@H](O)[C@H]2O[C@@H]1O", "relative growth": 1.11}
{"smiles": "C[C@@H]1CN([C@H](C)CO)C(=O)c2cc(C#CC3(O)CCCC3)cnc2O[C@@H]1CN(C)S(=O)(=O)c1ccc(F)cc1", "relative growth": 1.01}
{"smiles": "C[C@@H](Sc1nc(N)cc(N)n1)C(=O)O", "relative growth": 0.85}
{"smiles": "O=C(OC[C@]12O[C@H]1[C@@H](O)[C@@H]1C=CO[C@@H](O[C@@H]3O[C@H](CO)[C@@H](O)[C@H](O)[C@H]3O)[C@@H]12)c1ccccc1", "relative growth": 1.2}
{"smiles": "C=CC[C@H](CC(=O)N[C@@H](CO)Cc1ccccc1)C(=O)N[C@H](COC(=O)[C@@H](CC=C)Cc1ccc(F)cc1)Cc1c[nH]c2ccccc12", "relative growth": 0.948}
{"smiles": "Nc1ncnc2c1ncn2[C@H]1O[C@H](COP(=O)(O)O)[C@@H](O)[C@H]1O", "relative growth": 1}
{"smiles": "O=C(NC1CC1)[C@@H]1c2ccccc2C(=O)N(Cc2cc(F)cc(C(F)(F)F)c2)[C@H]1c1ccc(CO)cc1", "relative growth": 0.849}
{"smiles": "N[C@H]1CCCC[C@@H]1N1C(=O)CSC1=O", "relative growth": 0.998}
{"smiles": "COc1ccc(CNC(=O)C[C@H]2C[C@@H]3c4cc(NS(=O)(=O)c5ccc(F)cc5)ccc4O[C@@H]3[C@@H](CO)O2)cc1", "relative growth": 0.982}
{"smiles": "CNC(=O)Nc1ccc(C(=O)NC)cc1", "relative growth": 0.911}
{"smiles": "CCOc1nc2c(ncn2C)c(=O)n1C", "relative growth": 1.13}
{"smiles": "CC(C)(C)OC(=O)C[C@@H]1CC=CC[C@@H](CC(=O)N[C@@H](CO)Cc2ccccc2)C(=O)N[C@@H](C(C)(C)C)COC1=O", "relative growth": 0.902}
{"smiles": "CO/N=C(/C(=O)N[C@@H]1C(=O)N2C(C(=O)O)=C(CSC(=O)c3ccco3)CS[C@H]12)c1csc(N)n1.Cl", "relative growth": 0.147}
{"smiles": "COc1cc2c(cc1OC)CN(C(=O)[C@@H]1[C@H]3C(=O)O[C@H](c4ccccc4)[C@H](c4ccccc4)N3[C@H](c3ccc(OCCO)cc3)[C@@]13C(=O)Nc1ccc(C#CC4(O)CCCCCC4)cc13)CC2", "relative growth": 1.18}
{"smiles": "CC(=O)OCC(=O)[C@H]1CCC2C3CCC4=CC(=O)CC[C@]4(C)C3CC[C@@]21C", "note": "(stereo not given in full)", "relative growth": 1.3}
{"smiles": "CN1CCN(C(=O)C[C@H]2CC[C@@H]3[C@H](COC[C@H](O)CN3S(=O)(=O)c3cccc(F)c3)O2)CC1", "relative growth": 1.05}
{"smiles": "CC1=CC2C(CC1=O)C2(C)C", "note": "(stereo not given)", "relative growth": 0.994}
{"smiles": "COc1ccc(C(=O)c2ccccc2O)c(O)c1", "relative growth": 0.825}
{"smiles": "C[C@@H]1CN([C@@H](C)CO)C(=O)c2cccc(NC(=O)Nc3cccc4ccccc34)c2O[C@H]1CN(C)S(=O)(=O)c1ccc(OC(F)(F)F)cc1", "relative growth": 0.937}
{"smiles": "Cn1cnc(S(=O)(=O)N2C[C@H](O)COC[C@H]3O[C@H](CC(=O)N4CCN(c5ccccc5)CC4)CC[C@@H]32)c1", "relative growth": 0.91}
{"smiles": "CN1CCN(C(=O)C[C@H]2C=C[C@H](NC(=O)c3ccc4c(c3)OCO4)[C@H](CO)O2)CC1", "relative growth": 1.02}
{"smiles": "COC(=O)C[C@H]1CC[C@H]2[C@@H](COC[C@@H](O)CN2S(=O)(=O)c2cn(C)cn2)O1", "relative growth": 1.09}
{"smiles": "C=CCOC(=O)[C@H]1[C@@H]2C(=O)O[C@@H](c3ccccc3)[C@@H](c3ccccc3)N2[C@@H](c2ccc(OCCOC(=O)[C@@H]3C[C@@H]4C(=O)N[C@@H](Cc5ccccc5)C(=O)N4[C@@H]3c3ccc(O)cc3)cc2)[C@]12C(=O)Nc1ccccc12", "relative growth": 1.32}
{"smiles": "CC(=O)O[C@@H]1[C@@H](OC(C)=O)[C@H](C)O[C@@H](O[C@H]2[C@H](OC/C=C(\\C)CC/C=C(\\C)CC/C=C(\\C)CCC=C(C)C)O[C@H](CO[C@@H]3O[C@@H](C)[C@H](O)[C@@H](O)[C@H]3O)[C@@H](O)[C@@H]2O)[C@@H]1OC(C)=O", "relative growth": 0.668}
{"smiles": "C[C@@H]1CN([C@H](C)CO)S(=O)(=O)c2ccc(C#CCN(C)C)cc2O[C@@H]1CN(C)S(C)(=O)=O", "relative growth": 0.945}
{"smiles": "COc1ccc(COC(=O)[C@H]2[C@H]3C(=O)N(Cc4ccc5c(c4)OCO5)C[C@]34C=C[C@]2(Br)O4)cc1", "relative growth": 0.804}
{"smiles": "C[C@H](CO)N1C[C@H](C)[C@H](CN(C)C(=O)NC2CCCCC2)Oc2cc(-c3cccnc3)ccc2S1(=O)=O", "relative growth": 0.962}
{"smiles": "O=C(C[C@@H]1CC[C@H]2[C@@H](COC[C@H](O)CN2C(=O)C2CC2)O1)NCc1ccncc1", "relative growth": 0.855}
{"smiles": "NNC(=O)c1ccc(CN2CCCCC2)o1", "relative growth": 1.02}
{"smiles": "CN(C)CCNC(=O)c1ccccn1", "relative growth": 0.974}
{"smiles": "OCc1ccccn1", "relative growth": 1}
{"smiles": "COCC(=O)Nc1ccc2c(c1)C(=O)N(C)[C@@H]1CC[C@H](CC(=O)N3CCc4ccccc4C3)O[C@H]1CO2", "relative growth": 0.893}
{"smiles": "O=C(Nc1ccno1)NN1CCOCC1", "relative growth": 0.93}
{"smiles": "O=C(Cn1c(=O)n(-c2ccccc2)c(=O)n1CC(=O)N1CCOCC1)N1CCOCC1", "relative growth": 1.01}
{"smiles": "CN1CCC[C@H]1CO", "relative growth": 0.87}
{"smiles": "O=C(C[C@H]1C[C@@H]2c3cc(NC(=O)C4CCOCC4)ccc3O[C@@H]2[C@H](CO)O1)NCc1cc(F)ccc1F", "relative growth": 0.961}
{"smiles": "C=CCOC(=O)[C@H]1[C@@H]2C(=O)O[C@@H](c3ccccc3)[C@@H](c3ccccc3)N2[C@@H](c2ccc(OCCOC(=O)[C@H]3C[C@H]4C(=O)N[C@@H](Cc5ccccc5)C(=O)N4[C@H]3c3ccc(O)cc3)cc2)[C@]12C(=O)Nc1ccc(I)cc12", "relative growth": 1.38}
{"smiles": "O=C(C[C@H]1CC[C@@H]2[C@H](COC[C@@H](O)CN2C(=O)Nc2cccc(Cl)c2)O1)NCc1ccccc1F", "relative growth": 0.791}
{"smiles": "O=C(C[C@H]1C[C@H]2c3cc(NC(=O)C4CCOCC4)ccc3O[C@H]2[C@@H](CO)O1)NCc1cc(F)ccc1F", "relative growth": 0.904}
{"smiles": "NCCc1cc2nc(-c3ccncc3)ccn2n1", "relative growth": 0.994}
{"smiles": "C[C@H]1CCc2c(sc(/N=C/C=C/c3ccccc3)c2C#N)C1", "relative growth": 1.23}
{"smiles": "CC(C)Cc1ccc(C(C)C(=O)O)cc1", "note": "(stereo not given)", "relative growth": 0.984}
{"smiles": "CCSC(=O)NC1CCCCC1", "relative growth": 1.01}
{"smiles": "O=c1c(O)c(-c2ccc(O)c(O)c2)oc2cc(O)cc(O)c12", "relative growth": 1.02}
{"smiles": "CCS(=O)(=O)NCC[C@@H]1CC[C@@H](NC(=O)Cc2ccccn2)[C@@H](CO)O1", "relative growth": 0.882}
{"smiles": "C[C@@H]1CN([C@H](C)CO)S(=O)(=O)c2ccc(C#Cc3ccncc3)cc2O[C@@H]1CN(C)C(=O)c1ccncc1", "relative growth": 1.09}
{"smiles": "Cc1cc2cc(CN)ccc2[nH]1", "relative growth": 0.946}
{"smiles": "Cc1cnc(C(=O)O)c[n+]1[O-]", "relative growth": 0.938}
{"smiles": "CC(=O)Nc1cccc(O)c1", "relative growth": 0.868}
{"smiles": "COc1cccc(-c2cn(CC[C@H]3CC[C@@H](NC(=O)CN(C)C)[C@@H](CO)O3)nn2)c1", "relative growth": 0.847}
{"smiles": "C[C@@H]1CN([C@@H](C)CO)S(=O)(=O)c2ccc(C#C[C@@H](C)O)cc2O[C@@H]1CN(C)C", "relative growth": 1.07}
{"smiles": "OC[C@@H](O)[C@@H](O[C@@H]1O[C@H](CO)[C@H](O)[C@H](O)[C@H]1O)[C@H](O)[C@@H](O)CO", "relative growth": 0.938}
{"smiles": "CNC[C@@H](O)Cn1cc(C)c(C(C)=O)c1C", "relative growth": 1.02}
{"smiles": "NC(=O)c1nnn(Cc2ccccc2)c1N", "relative growth": 0.963}
{"smiles": "CO[C@@H]1CN(C)C(=O)c2ccc(NS(C)(=O)=O)cc2OC[C@H](C)N(C(=O)C2CCOCC2)C[C@@H]1C", "relative growth": 1.03}
{"smiles": "CC(C)NC(=O)NCC[C@H]1CC[C@H](NC(=O)CN(C)C)[C@@H](CO)O1", "relative growth": 0.919}
{"smiles": "O=C1O[C@H](c2ccccc2)[C@H](c2ccccc2)N2[C@H]1[C@@H](C(=O)O)[C@]1(C(=O)Nc3ccc(C#CC4=CCCCC4)cc31)[C@H]2c1ccccc1OCCO", "relative growth": 1.29}
{"smiles": "Cc1ccc(S[C@]2(C(=O)O)CC(=O)N(C3Cc4ccccc4C3)[C@@H]2c2ccc(CO)cc2I)cc1", "relative growth": 0.872}
{"smiles": "C[C@@H]1CN([C@H](C)CO)S(=O)(=O)c2ccc(/C=C/c3ccccc3)cc2O[C@@H]1CN(C)C(=O)CN1CCOCC1", "relative growth": 1.01}
{"smiles": "Cl.Cl.OCCOCCN1CCN(C(c2ccccc2)c2ccc(Cl)cc2)CC1", "note": "(stereo not given)", "relative growth": 1.35}
{"smiles": "O=C(C[C@H]1CC[C@@H](NC(=O)CN2CCOCC2)[C@@H](CO)O1)NCCc1ccncc1", "relative growth": 1.04}
{"smiles": "CC1=C(C/C=C(\\C)CCC[C@H](C)CCC[C@H](C)CCCC(C)C)C(=O)c2ccccc2C1=O", "relative growth": 1.21}
{"smiles": "Cc1cccc(S(=O)(=O)N2C[C@@H](O)COC[C@@H]3O[C@H](CC(=O)NCc4ccncn4)CC[C@H]32)c1", "relative growth": 1.03}
{"smiles": "CO[C@@H]1CN(C)C(=O)c2cc(NC(=O)C3CC3)ccc2OC[C@H](C)N(C(=O)CN2CCOCC2)C[C@@H]1C", "relative growth": 1.26}
{"smiles": "Cc1ccc(S(=O)(=O)N(C)C[C@@H]2Oc3ncc(-c4ccncc4)cc3C(=O)N([C@@H](C)CO)C[C@@H]2C)cc1", "relative growth": 1.15}
{"smiles": "O=C(O)[C@H]1/C(=C/CO)O[C@@H]2CC(=O)N21", "relative growth": 0.649}
{"smiles": "CN1C(=O)c2cc(NC(=O)c3cscn3)ccc2OC[C@H]2O[C@H](CC(=O)N3CCOCC3)CC[C@@H]21", "relative growth": 0.956}
{"smiles": "C[C@H](CO)N1C[C@H](C)[C@@H](CN(C)C(=O)c2ccccn2)Oc2cc(C#Cc3ccccc3)ccc2S1(=O)=O", "relative growth": 0.908}
{"smiles": "c1ccc2c([C@@H]3CCCN3)cccc2c1", "relative growth": 0.944}
{"smiles": "O=C1[N-]C(=O)C(c2ccccc2)(c2ccccc2)N1.[Na+]", "relative growth": 1.02}
